# Reference: article PMC6326798
# B1: GFP-hsCENP-H WT [human] / MYC-hsCENP-I [human] (parent)
# chain 1: MSPQKRVKNVQAQNRTSQGSSSFQTTLSAWKVKQDPSNSKNISKHGQNNPVGDYEHADDQAEEDALQMAVGYFEKGPIKASQNKDKTLEKHLKTVENVAWKNGLASEEIDILLNIALSGKFGNAVNTRILKCMIPATVISEDSVVKAVSWLCVGKCSGSTKVLFYRWLVAMFDFIDRKEQINLLYGFFFASLQDDALCPYVCHLLYLLTKKENVKPFRVRKLLDLQAKMGMQPHLQALLSLYKFFAPALISVSLPVRKKIYFKNSENLWKTALLAVKQRNRGPSPEPLKLMLGPANVRPLKRKWNSLSVIPVLNSSSYTKECGKKEMSLSDCLNRSGSFPLEQLQSFPQLLQNIHCLELPSQMGSVLNNSLLLHYINCVRDEPVLLRFYYWLSQTLQEECIWYKVNNYEHGKEFTNFLDTIIRAECFLQEGFYSCEAFLYKSLPLWDGLCCRSQFLQLVSWIPFSSFSEVKPLLFDHLAQLFFTSTIYFKCSVLQSLKELLQNWLLWLSMDIHMKPVTNSPLETTLGGSMNSVSKLIHYVGWLSTTAMRLESNNTFLLHFILDFYEKVCDIYINYNLPLVVLFPPGIFYSALLSLDTSILNQLCFIMHRYRKNLTAAKKNELVQKTKSEFNFSSKTYQEFNHYLTSMVGCLWTSKPFGKGIYIDPEILEKTGVAEYKNSLNVVHHPSFLSYAVSFLLQESPEERTVNVSSIRGKKWSWYLDYLFSQGLQGLKLFIRSSVHHSSIPRAEGINCNNQY
# chain 2: MEEQPQMQDADEPADSGGEGRAGGPPQVAGAQAACSEDRMTLLLRLRAQTKQQLLEYKSMVDASEEKTPEQIMQEKQIEAKIEDLENEIEEVKVAFEIKKLALDRMRLSTALKKNLEKISRQSSVLMDNMKHLLELNKLIMKSQQESWDLEEKLLDIRKKRLQLKQASESKLLEIQTEKNKQKIDLDSMENSERIKIIRQNLQMEIKITTVIQHVFQNLILGSKVNWAEDPALKEIVLQLEKNVDMM
# Variants of: B1
# Experiment: co-immunoprecipitation (anti-GFP IP, western blot quantification)
# Conditions: with MYC-hsCENP-I [human]; HeLa Tet-On cells co-transfected with GFP-hsCENP-H, non-tagged hsCENP-K and MYC-hsCENP-I; parent: 1; read off a plot
row,ratio to parent,Variant
1,0.52,chain 2 L219A L233A
2,0.66,chain 2 K234E L238A
